Ab-14 light chain CDR variants: yeast mating affinities

The target is the same throughout: PDVDLGDISGINAS, from the HR2 region of SARS-CoV-2 spike.

Parent: Ab-14, a human scFv built as VH, three GGGGS repeats, VL. Only the CDRs of the light chain vary.
VH: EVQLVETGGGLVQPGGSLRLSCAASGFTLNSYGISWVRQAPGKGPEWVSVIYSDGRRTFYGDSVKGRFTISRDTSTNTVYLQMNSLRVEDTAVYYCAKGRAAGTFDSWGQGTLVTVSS
VL: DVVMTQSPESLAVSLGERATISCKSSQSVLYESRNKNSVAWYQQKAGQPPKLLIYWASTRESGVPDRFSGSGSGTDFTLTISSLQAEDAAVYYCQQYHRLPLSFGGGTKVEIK

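Variants in AAYL50 differ from the parent at up to three CDR positions; double and triple changes were sampled at random. The assay is AlphaSeq: two haploid yeast populations carry antibody and antigen on their surface. After mating in shaken culture at 30 °C for 16 h, diploids were selected and their barcode pairs sequenced. Each replicate has its own calibration line, from reference interactions of the BCL2 family. The assay was run in three technical replicates.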

Positions count from residue 1 of the parent VL; K24I puts I in place of K. Numbers give log10(Kd / nM), so 0 is 1 nM and 3 is 1 µM. Smaller is tighter. Averages over replicates are reported, and they cover detected replicates only. A pair that was not seen in any replicate is written "nd"; this usually means weak binding, but a binder can also be missed.

| log10 Kd (nM), mean | seen in | changes |
|---|---|---|
| 2.63 | 3 of 3 | K24I S28Q L30V |
| 2.38 | 3 of 3 | E61P H98G R99A |
| 2.57 | 3 of 3 | S38Q S62W R99T |
| 3.80 | 2 of 3 | E32N S58F T59C |
| 3.81 | 3 of 3 | Y31C E61Y Q96L |
| 1.36 | 3 of 3 | L30Y T59N L102A |
| 4.65 | 3 of 3 | Y97A L100W |
| 4.43 | 1 of 3 | K36V R60H R99N |
| 0.99 | 3 of 3 | S25L S58Q R99G |
| 0.05 | 3 of 3 | S28L S38G W56D |
| 4.13 | 1 of 3 | N35I A57E Q95S |
| 4.25 | 2 of 3 | S28G E32K S103W |
| 0.84 | 3 of 3 | S25L S33N N35P |
| 1.34 | 3 of 3 | S25P N35E K36M |
| 1.54 | 3 of 3 | Q27W V29Y Y97I |
| nd | 0 of 3 | S26G Q95D S103P |
| nd | 0 of 3 | Q27P Q95N P101N |
| 1.23 | 3 of 3 | S33N K36W L100Y |
| 4.08 | 1 of 3 | V29G T59V L100C |
| 1.69 | 3 of 3 | V29F S58D L100H |
| 2.66 | 3 of 3 | S33K R34V Q95G |
| 2.52 | 3 of 3 | L30F Q96I L100D |
| 4.35 | 2 of 3 | S33I A57F S62F |
| 0.90 | 3 of 3 | S28N S62W R99H |
| nd | 0 of 3 | A40H W56V R60A |
| 3.01 | 1 of 3 | S25P S38M E61D |
| nd | 0 of 3 | E32R S58W Y97Q |
| 2.87 | 2 of 3 | Y31F Q96A L102A |
| nd | 0 of 3 | V29K N35R Q95D |
| nd | 0 of 3 | S28E S38K R60T |
| 0.75 | 3 of 3 | R99H S103H |
| 2.90 | 3 of 3 | V29C S62R S103W |
| 2.86 | 3 of 3 | R60L Q96S L100F |
| 3.21 | 3 of 3 | E61P L100Y |
| 3.60 | 1 of 3 | A40Q Q96C P101Q |
| nd | 0 of 3 | W56A S58H Y97C |
| 2.78 | 2 of 3 | Q95A P101K L102N |
| 0.94 | 3 of 3 | S25I T59I R60A |
| 5.99 | 2 of 3 | S26I E32H N37Q |
| 0.93 | 3 of 3 | Y31T S62I S103M |
| 2.58 | 3 of 3 | Q27K V29E A57L |
| 1.21 | 3 of 3 | E32S N35S Q96R |
| 5.53 | 1 of 3 | V29D A40E W56P |
| 0.98 | 3 of 3 | N37Y E61N S62Q |
| 1.25 | 3 of 3 | S25F T59F S62M |
| nd | 0 of 3 | S25G Q27S A40L |
| 3.72 | 1 of 3 | Q27R V39P S58D |
| 4.07 | 1 of 3 | K36D W56G P101M |
| 3.95 | 2 of 3 | Y31L R34K R60D |
| nd | 0 of 3 | S38W V39K L102N |
| nd | 0 of 3 | Y31K N35K Q96A |
| 0.43 | 3 of 3 | S28T V29M W56R |
| 3.03 | 1 of 3 | Y31Q V39F P101Q |
| 0.74 | 3 of 3 | L30G K36S H98W |
| 3.34 | 3 of 3 | Q27L L100K P101H |
| 3.73 | 1 of 3 | V39K A57F Q96W |
| 2.54 | 1 of 3 | R60T Q96H S103C |
| 2.17 | 3 of 3 | E32R Y97W H98L |
| 4.29 | 1 of 3 | V29N N37W S58I |
| 1.11 | 3 of 3 | V29G L30W A57G |
| nd | 0 of 3 | A57N Y97K |
| 5.92 | 2 of 3 | N35L R60L P101E |
| 2.49 | 3 of 3 | V29S A57R S103W |
| 2.59 | 3 of 3 | Y31Q S38E A57V |

The first 4 entries again:

| changes | log10 Kd (nM), mean | seen in |
|---|---|---|
| K24I S28Q L30V | 2.63 | 3 of 3 |
| E61P H98G R99A | 2.38 | 3 of 3 |
| S38Q S62W R99T | 2.57 | 3 of 3 |
| E32N S58F T59C | 3.80 | 2 of 3 |

For reference, the parent read 0.65 as the reference entry and 1.68 as a member of this library. Background: pairings of library AAYL50 with three empty control strains gave a value in 18% of cases (median 4.19, 5th percentile 2.99). Values in that range, when seen in few replicates, are hard to tell from nonspecific mating.

The measurements come from Engelhart et al. 2022 (doi:10.1038/s41597-022-01779-4) through the FLAb antibody collection.